How the values were obtained:
[1] = Aqueous solubility determination; conditions: corrected to the effective solubility of the free drug substance, after two hours equilibration time

highest water up-take (dynamic vapor sorption, at 95% relative humidity) | water content change (water uptake) (relative humidity changed from 0 to 95% according to the measurement program (FIG. 4)) | Substance | Aqueous Solubility at 25° C. [1] [µg/mL]
about 0.4% | Δm = 0.4% | Nilotinib Hydrochloride-fumaric Acid Co-crystal | –
– | – | Nilotinib Hydrochloride-maleic Acid Co-crystal | 425

— patent US9567317B2, “Multicomponent crystalline system comprising nilotinib and selected co-crystal formers” (BASF SE, priority 2012, dated 2017)
